# Test results from PubChem BioAssay AID1346378 (National Center for Advancing Translational Sciences (NCATS), 2018).
# By UniProt entry, the sequences of proteins in these tests, tags left out.
# UniProt Q9BTU6, whole entry: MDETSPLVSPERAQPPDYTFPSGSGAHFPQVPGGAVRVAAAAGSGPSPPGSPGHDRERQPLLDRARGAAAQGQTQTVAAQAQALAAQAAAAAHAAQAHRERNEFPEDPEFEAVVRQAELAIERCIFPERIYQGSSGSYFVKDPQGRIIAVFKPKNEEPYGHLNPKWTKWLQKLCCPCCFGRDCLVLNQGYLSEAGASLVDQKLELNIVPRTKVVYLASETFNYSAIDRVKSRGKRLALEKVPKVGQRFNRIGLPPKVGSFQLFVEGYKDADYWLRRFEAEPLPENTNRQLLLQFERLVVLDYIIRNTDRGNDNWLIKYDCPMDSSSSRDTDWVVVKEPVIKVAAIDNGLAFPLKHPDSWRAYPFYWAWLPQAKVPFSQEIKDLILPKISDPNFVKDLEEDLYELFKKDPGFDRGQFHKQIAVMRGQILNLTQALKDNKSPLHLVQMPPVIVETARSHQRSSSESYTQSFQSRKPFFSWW
# The list shows a part of the results, in another mix than the full data. Activity calls are given as the source filed them. No stated cut-off is given here; in the data, active means activity change below about -50%; inconclusive means mostly about -30% to -49%; inactive means weaker than that.
# Biological target: Phosphatidylinositol 4-kinase type 2-alpha (Homo sapiens) (UniProt Q9BTU6)
# Experiment: qHTS for small molecular inhibitors of PI4K2A;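 on activity change, negative = inhibition: -100% = wells without enzyme as full effect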
# Settings: purified PI4K2A, ADP-Glo luminescence, 1 h; at 76.9 µM, hits give low values
# From the text: The phosphatidylinositol 4-phosphate (PI4P) is emerging as a key regulator of lipid transfer in ER-membrane contact sites. The four different phosphatidylinositol 4-kinase (PI4K) enzymes generate PI4P in different membrane compartments supporting distinct cellular processes many of which are crucial for the maintenance of cellular integrity but also hijacked by intracellular pathogens. The goal of this screening project is to search for small molecular inhibitors of PI4K2A based on a high throughput screening strategy.The ADP-Glo assay was used as a starting point to develop a miniaturized version for HTS applications. To implement the HTS screen, the PI4K ADP-Glotrade mark Kinase assay (Promega, V9102) was miniaturized for the 1536-well format used at NCGC.
# For the robotic screening, the ADP-Glo assay using the ADP-Glotrade mark Kinase Assay kit from Promega was miniaturized and optimized on 1536-well white solid bottom plates (Greiner Bio-one). The substrate, 1.2 mM PI, prepared in the assay buffer (40mM Tris pH7.5, 20mM MgCl2, 1mM EGTA, 0.4% Triton X-100, 0.5mM DTT, 0.5mg/ml BSA) and PI4K2A enzyme, diluted also in the assay buffer to 4ug/mL, were dispensed onto the plates in equal volumes (1microl/well), pinned with 23 nL/well tested compounds or control followed by dispensation of 1microl/well 300microM ATP. The plates were incubated for one hour. Then, 2 µL/well of ADP-Glo reagent was added and incubated for 40 minutes. Next, 4microL/well of Kinase Detection Buffer was added to the plates and incubated for additional 40 minutes. All incubation steps were performed at ambient temperature. The resulting luminescence signal was measured on Viewlux plate reader (PerkinElmer). Adenosine, a partial non-specific inhibitor, was used as a positive control at 100microM final concentration to assess the assay's quality and plate-to-plate reproducibility. We also used "no enzyme" control to gauge the assay's maximal potential inhibition (IC100).
row,SMILES,"activity change, negative = inhibition"
1,Cc1cc(-c2cccc3ccccc23)c(C)cn1.O=[N+]([O-])c1cc([N+](=O)[O-])c(O)c([N+](=O)[O-])c1,inactive: -0.156%
2,O=[N+]([O-])c1ccc(OP2(=O)COCCO2)cc1 (configuration not stated),inactive: 1.37%
3,Cc1c(C(c2ccc3c(c2)OCO3)c2c(C)n(C)n(-c3ccccc3)c2=O)c(=O)n(-c2ccccc2)n1C.O=[N+]([O-])c1cc([N+](=O)[O-])c(O)c([N+](=O)[O-])c1,inactive: -2.06%
4,CP(=O)(Nc1ccc(SC(F)(F)F)cc1)Oc1ccc(F)cc1 (configuration not stated),inactive: -2.46%
5,CCOP(C)(=S)SCC(=O)NC(C)(CC)C(=O)O (configuration not stated),inactive: 3.27%
6,CP(=O)(Nc1ccc2c(c1)OCCO2)Oc1ccccc1 (configuration not stated),inactive: 2.49%
7,O=[N+]([O-])c1cc([N+](=O)[O-])c(C(F)(F)F)c([N+](=O)[O-])c1O,inactive: -4.53%
8,Cc1ccccc1NP(C)(=O)Nc1ccccc1C,inactive: 1.34%
9,CC(C)c1ccc(OP(C)(=O)Nc2ccc(SC(F)(F)F)cc2)cc1 (configuration not stated),inactive: -3.11%
10,CP(=O)(Nc1ccccc1F)Oc1ccccc1 (configuration not stated),inactive: -2.67%
11,O=C(OCCN1CCN(CCOCc2ccccc2)CC1)C(O)(c1ccccc1)c1ccccc1,inactive: -3.39%
12,CCOP(=O)(CC)Oc1ccc([N+](=O)[O-])cc1 (configuration not stated),inactive: -0.0979%
13,Cc1cccc([N+](=O)[O-])c1[N+](=O)[O-],inactive
14,COc1ccc(OP(C)(=O)Nc2ccc(SC(F)(F)F)cc2)cc1 (configuration not stated),inactive: 1.34%
15,CCOC(=O)c1ccc(NP(C)(=O)Oc2ccc(F)cc2)cc1 (configuration not stated),inactive: 2.65%
16,CCN(CC)CCCOC(=O)C(O)(c1ccccc1)C1CCCCC1 (configuration not stated),inactive: 6.09%
17,Cc1c([N+](=O)[O-])cc([N+](=O)[O-])c(Br)c1[N+](=O)[O-],inactive: -8.01%
18,CCCCCOc1ccc(NP(C)(=O)Oc2ccc(Cl)cc2Cl)cc1 (configuration not stated),inactive: 7.76%
19,CP(=O)(Nc1ccccc1)Oc1ccc(F)cc1 (configuration not stated),inactive: -1.07%
20,Cc1cc(C)cc(OP(C)(=O)Nc2cccc(C(F)(F)F)c2)c1 (configuration not stated),inactive: 0.503%
21,COc1ccc(OP(C)(=O)Nc2ccccc2Br)cc1 (configuration not stated),inactive: -2.5%
22,COc1ccccc1OP(C)(=O)Nc1ccc(C)c(C)c1 (configuration not stated),inactive: 4.95%
23,CP(=O)(OCCOc1ccccc1)OCCOc1ccccc1,inactive: -0.889%
24,CP(=O)(Nc1ccc(Cl)cc1Cl)Oc1ccccc1 (configuration not stated),inactive: -1.83%

row,SMILES,"activity change, negative = inhibition"
1,CCCCCCCCCCCCCCCC1C[N+](C)(C)CCOP(C)(=O)O1 (configuration not stated),inactive: 2.98%
2,COc1ccccc1OP(C)(=O)Nc1ccc(Br)cc1 (configuration not stated),inactive: 3.93%
3,CN(C)CCOC(=O)C(O)(c1ccccc1)C1CCCC1 (configuration not stated),inactive: -1.08%
4,COc1ccc(OP(C)(=O)Nc2ccccn2)cc1 (configuration not stated),inactive: 2.17%
5,O=[N+]([O-])c1cc([N+](=O)[O-])c(Nc2ccccn2)c([N+](=O)[O-])c1,inactive: -13.8%
6,Cc1c(NP(C)(=O)Oc2ccc(C(C)C)cc2)c(=O)n(-c2ccccc2)n1C (configuration not stated),inactive: 3.6%
7,CCc1ccc(OP(C)(=O)O)cc1,inactive: -21.8%
8,COc1ccccc1OP(C)(=O)Nc1ccc(C)cc1C (configuration not stated),inactive: 1.09%
9,CP(=O)(Nc1ccccn1)Oc1ccccc1 (configuration not stated),inactive: 3.62%
10,COc1ccc(OP(C)(=O)Nc2ccc(Br)cc2)cc1 (configuration not stated),inactive: -3.08%
11,CCN(CC)CC(O)COC(=O)C(O)(c1ccccc1)C1CCCCC1 (configuration not stated),inactive: -6.08%
12,CCc1ccc(OP(C)(=O)Nc2cccnc2)cc1 (configuration not stated),inactive: 3.17%
13,CP(=O)(Oc1ccccc1)N1CCOC1=O (configuration not stated),inactive: 4.41%
14,O=C(OCCCN1CCCC1)C(O)(c1ccccc1)C1CCCCC1 (configuration not stated),inactive: -3.45%
15,OCCSCCO,inactive: 1.47%
16,COc1ccccc1OP(C)(=O)Nc1c(C)n(C)n(-c2ccccc2)c1=O (configuration not stated),inactive: 4.95%
17,CP(=O)(Nc1ccc(Cl)cc1)Oc1ccc(F)cc1 (configuration not stated),inactive: -6.57%
18,CC(C)(C)c1ccc(OP(C)(=O)O)cc1,inactive: -0.939%
19,COc1ccccc1OP(C)(=O)Nc1ccccc1Br (configuration not stated),inactive: 2.8%
20,CN(C)C(=O)c1c([N+](=O)[O-])cc([N+](=O)[O-])cc1[N+](=O)[O-],inactive: -10%
21,Nc1ccc2c(ccc3cccnc32)n1.O=[N+]([O-])c1cc([N+](=O)[O-])c(O)c([N+](=O)[O-])c1,inactive: 13.2%
22,CP(=O)(OC12CC3CC(CC(C3)C1)C2)OC12CC3CC(CC(C3)C1)C2,inactive: -0.532%
23,CCOC(=O)c1ccc(NP(C)(=O)Oc2ccc(Cl)cc2)cc1 (configuration not stated),inactive: 1.72%
